The entries are a selection whose mix differs from that of the whole data set. Calls of active or inactive are those of the source. The call rests on the fitted dose curve; in most records, active means well fitted cell-killing curve with a large enough effect; inactive means no such curve, though single readings can be large or run the other way.
Experiment: qHTS for Inhibitors of TGF-b: Cytotox Counterscreen
Details: HepG2 CAGA-GFP viability, ATP luminescence, 18 h; at 46.1 µM (top of the series)
Description: TGF-b is a main component in the TGF-b signaling pathway which plays diverse roles in cellular and development pathways. TGF-b is mediated by transcription factors called "Smads". Although the Smad-dependent pathway is the primary canonical TGF-b signaling mode, TGF-b1 can also activate alternative signaling pathways, including those involving MAPK (ERK, JNK and p38). This interaction may mediate or enhance Smad-dependent responses, or can exert Smad-independent effects. The complexity of this signaling cascade allows the TGF-b superfamily to perform unique, overlapping or redundant functions. We believe that targeting the TGF-beta pathway at the Smad-transcription factor level may eliminate the consequences of disrupting the entire pathway and offer specificity without affecting other signaling pathways. Smad3 is the primary transducer of TGF-b's signals and Smad3 regulates many functions attributed to TGF-b signaling. We hypothesize that Smad3 inhibitors will selectively eliminate Smad3-specific TGF-beta signals without undesired off-target effects. We aim to identify Smad3-small molecule antagonists using a quantitative high throughput screening (qHTS) approach.
A high-throughput assay was developed to screen the NIH Molecular Libraries Small Molecule Repository (MLSMR). This is a cell based assay, where TGF-b is tagged with GFP. This is a counterscreen that evaluates the cytotoxicity of the compounds that were screened in the primary cell-based screen (AID 588855).
MH087449NIH Chemical Genomics Center [NCGC]
NIH Molecular Libraries Probe Centers Network [MLPCN]
Assay Submitter (PI): Sushil Rane, National Institute of […]
Suspensions of trypsinized HEPG2 CAGA-GFP cells were dispensed into white, tissue culture-treated, solid 1536-well plates at 5uL/well (1000 cells/well final concentration) in DMEM medium supplemented with 1% FBS. Plates were incubated at 37 degrees C for 2 hours, after which 23 nL of compounds or DMSO were delivered to each well using a pin tool. One uL of recombinant TGF-beta in DMEM (1% FBS) was then dispensed (500 pg/mL final concentration), and plates were incubated at 37 degrees C for 18 hours. Two uL of CellTiter Glo (Promega), a luminescence-based viability reagent, was dispensed, followed by a 10 minute room temperature incubation. The plates were then measured on a PerkinElmer ViewLux plate reader for luminescence (clear filter) using a 5 second exposure. The %Activity was determined from the corrected luminescence values. Wells containing media only (no cells) were used to normalize %Activity of identified toxic compounds; media-only wells corresponded to 100%Activity (complete cell-killing), while DMSO-dosed cell controls were used to normalize 0%Activity (no toxicity).
Concentration-response curves were fitted to the signals arising from the resulting luminescence. The concentration-effect curves were then classified based on curve quality (r2), response magnitude and degree of measured activity, and compounds were subsequently categorized based on their curve class.

Row | Structure (SMILES) | activity change, negative = cytotoxicity
1 | O=C(NCC1(N2CCOCC2)CCCCC1)c1ccccc1[N+](=O)[O-] | inactive: -6.8%
2 | N#Cc1ccc(C(=O)NCC2(N3CCCCC3)CCCCC2)cc1 | inactive: -3.49%
3 | O=C(NCC1(N2CCOCC2)CCCCC1)c1ccc([N+](=O)[O-])cc1 | inactive: -16.9%
4 | CC(C)(C)OC(=O)N1CCC(N(C(=O)c2ccccc2)c2ccc(Cl)cc2)CC1 | inactive: 4.03%
5 | CCOC(=O)C(CC)C1=NC(C)(C)Cc2ccccc21.O=[N+]([O-])c1cc([N+](=O)[O-])c(O)c([N+](=O)[O-])c1 (stereo not given) | inactive: 11.7%
6 | CN(C)C1(CNC(=O)c2cccc(C#N)c2)CCCCC1 | inactive: 7.2%
7 | c1ccc(CN2CCC(Nc3ccccc3)CC2)cc1 | inactive: -22.4%
8 | Cc1cc(N(CCCl)CCCl)ccc1C=O | inactive: -44.1%
9 | O=C(NCC1(N2CCOCC2)CCCCC1)c1ccccc1 | inactive: -6.45%
10 | O=c1[nH]c2ccccc2n1C1CCN(C(c2ccccc2)c2nnnn2C2CCCC2)CC1 (stereo not given) | inactive: -31.8%
11 | CCCN1CCC(Nc2cc(OC)cc(OC)c2)CC1 | inactive: -7.76%
12 | CC(C)(C)n1nnnc1C(c1cccc2ccccc12)N1CCC(n2c(=O)[nH]c3ccccc32)CC1 (stereo not given) | inactive: 10.7%
13 | CCCCn1nnnc1C(c1ccccc1)N1CCC(n2c(=O)[nH]c3ccccc32)CC1 (stereo not given) | inactive: -15%
14 | COc1cc(C(=O)NCC2(N3CCOCC3)CCCCC2)cc(OC)c1C | inactive: -12%
15 | O=C(NCC1(N2CCOCC2)CCCCC1)c1cc(Br)ccc1Cl | inactive: -0.422%
16 | O=c1[nH]c2ccccc2n1C1CCN(C(c2cccs2)c2nnnn2C2CCCCC2)CC1 (stereo not given) | inactive: -16.8%
17 | O=Cc1ccc(N(CCCl)CCCl)cc1 | inactive: -10.3%
18 | COc1ccc(C(=O)NCC2(N3CCOCC3)CCCCC2)cc1OC | inactive: -8.09%
19 | O=c1[nH]c2ccccc2n1C1CCN(C(c2ccnc3ccccc23)c2nnnn2C2CCCC2)CC1 (stereo not given) | inactive: 5.05%
20 | COc1cccc(C(c2nnnn2C(C)(C)C)N2CCC(n3c(=O)[nH]c4ccccc43)CC2)c1OC (stereo not given) | inactive: 3.32%

Row | Structure (SMILES) | activity change, negative = cytotoxicity
21 | CCOC(=O)N1CCC(Nc2ccc(C)cc2)CC1 | inactive: 7.87%
22 | N/C(=N\O)c1c(N)no[n+]1[O-] | inactive: -2.24%
23 | O=C(OC1CN2CCC1CC2)C1c2ccccc2C=Cc2ccccc21 (stereo not given) | inactive: -10.9%
24 | CCc1cc(C(=O)NCC2(N3CCCCC3)CCCCC2)sc1C | inactive: -16.8%
25 | O=C(O)c1cccc(Nc2c([N+](=O)[O-])cc([N+](=O)[O-])cc2[N+](=O)[O-])c1 | inactive: -2.07%
26 | O=c1[nH]c2ccccc2n1C1CCN(C(c2cccs2)c2nnnn2C2CCCC2)CC1 (stereo not given) | inactive: 5.58%
27 | CCCCn1nnnc1C(c1cccc(OC)c1OC)N1CCC(n2c(=O)[nH]c3ccccc32)CC1 (stereo not given) | inactive: -14.5%
28 | CCOc1ncccc1C(=O)NCC1(N2CCOCC2)CCCCC1 | inactive: 3.05%
29 | CN1CCC(Nc2ccc(F)c(Cl)c2)CC1 | inactive: -14.7%
30 | CC(C)(C)OC(=O)N1CCC(Nc2ccccc2)CC1 | inactive: -20.3%
31 | ClCCN(CCCl)c1ccc(C=C2C=CC=C2)cc1 | inactive: -0.571%
32 | O=C(O)C1(Nc2ccccc2)CCN(Cc2ccccc2)CC1 | inactive: -11.3%
33 | ClCCN(CCCl)c1ccccc1 | inactive: 5.85%
34 | CCCOc1ccc(C(=O)NCC2(N(C)C)CCCCC2)cc1 | inactive: -17.5%
35 | O=c1[nH]c2ccccc2n1C1CCN(C(c2cc3ccccc3o2)c2nnnn2C2CCCC2)CC1 (stereo not given) | inactive: -26.2%
36 | COc1cccc(C(=O)N(c2cc(C)cc(C)c2)C2CCN(C(=O)OC(C)(C)C)CC2)c1 | inactive: 0.389%
37 | COc1cccc(C(c2nnnn2C2CCCC2)N2CCC(n3c(=O)[nH]c4ccccc43)CC2)c1OC (stereo not given) | inactive: -2.1%
38 | COc1cc(OC)cc(C(=O)NCC2(N3CCOCC3)CCCCC2)c1 | inactive: 6.15%
39 | COc1cc(C(=O)NCC2(N3CCOCC3)CCCCC2)cc(OC)c1OC | inactive: -4.11%
40 | CCC(CO)(C(=O)OC1CN2CCC1CC2)c1ccccc1 (stereo not given) | inactive: -56.5%

Row | Structure (SMILES) | activity change, negative = cytotoxicity
41 | CN1CCC(Nc2ccc(Cl)cc2)CC1 | inactive: 3.5%
42 | CC(=O)N(c1ccccc1)C1CCNCC1 | inactive: -2.2%
43 | COc1cccc(C(c2nnnn2C2CCCCC2)N2CCC(n3c(=O)[nH]c4ccccc43)CC2)c1OC (stereo not given) | inactive: 5.01%
44 | CN(C)C1(CNC(=O)c2ccc(C(C)(C)C)cc2)CCCCC1 | inactive: -16%
45 | CCC(c1nnnn1C1CCCCC1)N1CCC(n2c(=O)[nH]c3ccccc32)CC1 (stereo not given) | inactive: -0.453%
46 | O=c1[nH]c2ccccc2n1C1CCN(C(c2ccnc3ccccc23)c2nnnn2C2CCCCC2)CC1 (stereo not given) | inactive: 3.97%
47 | COc1cc(OC)cc(C(=O)NCC2(N3CCCCC3)CCCCC2)c1 | inactive: -12.4%
48 | Cc1ccc(C(=O)NCC2(N3CCCCC3)CCCCC2)o1 | inactive: -1.97%
49 | Cc1ccc(Nc2c([N+](=O)[O-])cc([N+](=O)[O-])cc2[N+](=O)[O-])cc1 | inactive: -117%
50 | Fc1ccccc1NC1CCN(Cc2ccccc2)CC1 | inactive: 23.4%
51 | Cc1ccc(NC2(C#N)CCN(Cc3ccccc3)CC2)cc1 | inactive: -5.09%
52 | Cc1ccccc1NC1(C#N)CCN(Cc2ccccc2)CC1 | inactive: 9.29%
53 | CC(C)(C)n1nnnc1C(c1ccnc2ccccc12)N1CCC(n2c(=O)[nH]c3ccccc32)CC1 (stereo not given) | inactive: -3.14%
54 | CCN1CCC(Nc2cccc(F)c2)CC1 | inactive: 12.6%
55 | COc1ccc(C(c2nnnn2C2CCCCC2)N2CCC(n3c(=O)[nH]c4ccccc43)CC2)cc1 (stereo not given) | inactive: -4.76%
56 | Cc1ccccc1C(=O)NCC1(N(C)C)CCCCC1 | inactive: -5.54%
57 | CC(C)(C)c1ccc(C(=O)NCC2(N3CCOCC3)CCCCC2)cc1 | inactive: -25.5%
58 | O=C(NCC1(N2CCCCC2)CCCCC1)c1ccco1 | inactive: 5.85%
59 | Cn1c(=O)[nH]cc(N(CCCl)CCCl)c1=O | inactive: -0.876%
60 | CN(C)c1ccc(C(=O)NCC2(N3CCCCC3)CCCCC2)cc1 | inactive: -30.9%

From PubChem BioAssay AID588856 (National Center for Advancing Translational Sciences (NCATS), 2011)
